Consider 1 molecule from patent US11046680B1, “Heteroaryl-substituted triazoles as APJ receptor agonists” (priority 2016, dated 2021).

Chains of the proteins cited; added tags and fusions are not shown.
UniProt P35414, whole entry: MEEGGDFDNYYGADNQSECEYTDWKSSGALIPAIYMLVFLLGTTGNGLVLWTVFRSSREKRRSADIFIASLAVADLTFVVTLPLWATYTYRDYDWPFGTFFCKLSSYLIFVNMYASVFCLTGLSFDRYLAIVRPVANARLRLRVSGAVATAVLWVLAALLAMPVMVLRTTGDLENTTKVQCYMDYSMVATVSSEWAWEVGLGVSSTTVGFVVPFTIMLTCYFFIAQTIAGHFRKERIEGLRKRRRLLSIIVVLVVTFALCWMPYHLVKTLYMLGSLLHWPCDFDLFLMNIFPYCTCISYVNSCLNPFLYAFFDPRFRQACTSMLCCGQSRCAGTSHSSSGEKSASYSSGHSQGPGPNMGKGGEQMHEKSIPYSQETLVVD

For orientation: EC50 means the concentration giving half of the maximal effect.

The target in the experiment is human APJ receptor (Homo sapiens (Human), UniProt P35414). As to conditions: read-out: Activity hAPJ SPA EC50 IP; [35S]GTPγS binding, CHO membranes expressing human APJ receptor. A general note: Binding of GTPγS marks nucleotide exchange on a G protein.

Each structure is given as a SMILES string.

Take `COCC(COC)n1c(NS(=O)(=O)[C@@H](C)[C@H](OC)c2ncc(Cl)cn2)nnc1-c1ccn(C)n1`: the EC50 came to 16 nM.
